# Experimental data: patent US9938516B2, “Non-natural amino acid tRNA synthetases for para-methylazido-L-phenylalanine” (SUTRO BIOPHARMA, INC., priority 2013, dated 2018)
# Test system: Her2-positive breast cancer cell line SKBR3
# Assay: cell-based proliferation (cytotoxicity) assay, Cell Titer-Glo
# Settings: SKBR3 cells, 120 hrs, at the concentrations tested
# Method: The cell killing activity (cytotoxicity) of the conjugated ADC was measured using a cell-based proliferation assay. The Her2-positive breast cancer cell line SKBR3 was obtained from ATCC and maintained in DMEM/Nutrient F-12 Ham (50:50), high glucose (Cellgro-Mediatech; Manassas, Va.) supplemented with 10% heat-inactivated fetal bovine serum (Hyclone; Thermo Scientific; Waltham, Mass.), 2 mM glutamax (Invitrogen; Carlsbad, Calif.) and 1× Pencillin/streptomycin (Cellgro-Mediatech; Manassas, Va.). Adherent cells were washed twice with calcium and magnesium-free Phosphate Balanced Saline (PBS) and harvested with HYQ® SE™ (Hyclone; Thermo Scientific; Waltham, Mass.). A total of 1×10^3 or 3×10^3 cells in a volume of 40 ml were seeded in each well of a 96-well half area flat bottom white polystyrene plate. The cells were allowed to adhere overnight at 37° C. in a CO2 incubator. ADC variants were formulated at 2× concentration in DMEM/F12, medium and filtered through sterile SpinX cellulose acetate filtered 2 ml centritube (Corning Costar, Cat#8160). 40 μl of filter-sterilized ADCs were added into treatment wells and plates were cultured at 37° C. in a CO2 incubator for 120 hrs. […] Relative luminescence was measured on an ENVISION® plate reader (Perkin-Elmer; Waltham, Mass.). Relative luminescence readings were converted to % viability using untreated cells as controls. […]
substance,measurement,value
trastuzumab: Her2-specific monoclonal antibody; unconjugated control,cell killing,ineffective
